Results published in patent publication US20160282364A1, “ASSAY FOR INSULIN-DEGRADING ENZYME (IDE) INHIBITORS” (PRESIDENT AND FELLOWS OF HARVARD COLLEGE, priority 2013, published 2016).

The chains behind the UniProt entries cited, without tags or fusion partners. Residues count along the entry.
UniProt P14735, 42-1019 A479L limits assumed: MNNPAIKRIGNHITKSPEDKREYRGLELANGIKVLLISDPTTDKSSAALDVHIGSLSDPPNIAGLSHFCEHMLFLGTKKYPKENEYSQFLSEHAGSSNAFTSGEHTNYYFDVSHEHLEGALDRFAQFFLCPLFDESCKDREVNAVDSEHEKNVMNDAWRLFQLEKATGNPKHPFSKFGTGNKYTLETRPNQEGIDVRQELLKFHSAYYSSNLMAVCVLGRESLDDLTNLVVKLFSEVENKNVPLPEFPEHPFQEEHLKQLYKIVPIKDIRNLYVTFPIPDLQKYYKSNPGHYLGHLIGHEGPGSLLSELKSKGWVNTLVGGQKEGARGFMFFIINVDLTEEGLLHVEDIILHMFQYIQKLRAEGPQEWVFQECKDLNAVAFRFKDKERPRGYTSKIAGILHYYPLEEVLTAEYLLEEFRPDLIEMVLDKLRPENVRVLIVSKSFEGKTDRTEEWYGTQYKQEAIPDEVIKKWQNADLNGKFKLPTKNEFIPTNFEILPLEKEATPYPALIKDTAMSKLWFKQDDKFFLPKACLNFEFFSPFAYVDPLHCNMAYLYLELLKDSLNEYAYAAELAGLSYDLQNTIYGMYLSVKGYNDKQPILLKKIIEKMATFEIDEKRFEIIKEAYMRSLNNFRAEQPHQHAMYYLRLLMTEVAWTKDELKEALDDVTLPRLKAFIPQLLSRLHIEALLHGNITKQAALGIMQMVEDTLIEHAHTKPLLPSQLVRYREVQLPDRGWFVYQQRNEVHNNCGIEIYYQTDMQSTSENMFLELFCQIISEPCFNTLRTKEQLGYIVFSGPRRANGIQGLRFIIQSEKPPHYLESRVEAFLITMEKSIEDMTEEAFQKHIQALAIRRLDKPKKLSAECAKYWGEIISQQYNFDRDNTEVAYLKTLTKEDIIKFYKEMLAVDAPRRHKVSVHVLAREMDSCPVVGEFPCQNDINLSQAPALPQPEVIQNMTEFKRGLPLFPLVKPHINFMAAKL

Target: hIDE A479L (Homo sapiens, UniProt P14735, A479L)

IC50 shift: > 600
Structure (SMILES): NC(=O)CC[C@@H]1NC(=O)/C=C/C(=O)N[C@H](C(N)=O)CCCCNC(=O)[C@@H](Cc2ccc(C(=O)c3ccccc3)cc2)NC(=O)[C@H](CC2CCCCC2)NC1=O
